# Apparent affinities of Ab-14 variants for a coronavirus HR2 peptide

Target peptide (SARS-CoV-2 spike, HR2 region): PDVDLGDISGINAS

Each scFv is VH, a 15-residue (Gly4Ser)3 linker, VL, as in the parent Ab-14, and differs from it in the CDRs of the heavy chain only.
VH: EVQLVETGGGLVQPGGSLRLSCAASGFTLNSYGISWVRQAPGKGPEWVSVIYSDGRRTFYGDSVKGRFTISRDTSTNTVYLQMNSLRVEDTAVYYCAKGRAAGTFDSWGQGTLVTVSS
VL: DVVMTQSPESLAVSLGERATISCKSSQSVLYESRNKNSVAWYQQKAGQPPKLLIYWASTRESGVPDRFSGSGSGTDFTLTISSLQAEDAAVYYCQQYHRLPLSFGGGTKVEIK

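This is the validation round: designs drawn from the data on random variants, tested in the same kind of assay. Several design methods are mixed in this list. The scFvs were displayed on barcoded MATa yeast, the peptide on MATalpha yeast. Pairs that bind mate more often; barcode pairs of the diploids are counted by sequencing. Read counts were normalised to the haploid input and turned into Kd by a linear fit to BCL2-family pairs of known affinity, for each replicate. The assay was run in six technical replicates.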

Substitutions are numbered in sequence along the VH above, starting at 1 (not Kabat). Variants here have at most six changes. Kd is apparent (estimated from mating counts) and averaged on the log scale over replicates with a signal. Smaller is tighter. An entry "not detected" has no value in the source: the pair was not observed among the diploids in any replicate. This suggests poor binding but is not conclusive. Empty control strains, which show no peptide, gave a signal in 1% of pairings with all heavy chain designs; the median was 120 nM and 95% of these signals were weaker than 7.0 nM. No background was subtracted. For each scFv, signals with the empty controls are counted beside the result.

changes,Kd (apparent),replicates with signal,signal with controls
F27C+N30D+D54Y+F105A+D106L,not detected,0 of 6,0 of 18
G61S+R100H+S107N,25 nM,1 of 6,0 of 18
T28P+S53A,4.5 nM,6 of 6,1 of 18
T28S+S31E+G61A+R100H,940 pM,6 of 6,0 of 18
T28G+G61T+A101T,31 nM,6 of 6,0 of 18
T28D+S31E+S63A+R100N,1.3 nM,6 of 6,0 of 18
T28S+R100T+A101E,1.6 nM,6 of 6,0 of 18
G61A+A101M+S107T,5.0 nM,6 of 6,2 of 18
F27N+L29N+S53A+R56H,630 nM,2 of 6,0 of 18
T28S+R56I+A101W+T104L,not detected,0 of 6,0 of 18
F27N+T28K+S107E,13 nM,3 of 6,0 of 18
T28V+S31D+A101T,not detected,0 of 6,0 of 18
T28D+G61V+S63Q+R100Q+A101T,not detected,0 of 6,0 of 18
G61I+S63D+R100Q+S107V,12 nM,6 of 6,0 of 18
S31D+R56K+A101T,960 pM,6 of 6,0 of 18
G26S+R56Q+G61I+A101I,not detected,0 of 6,0 of 18
L29I+S31E+R56L,6.0 nM,6 of 6,0 of 18
S31Q+R56Q+G61S+A101T,640 pM,6 of 6,0 of 18
T28E+G61I+R100W+A101V,5.0 nM,6 of 6,0 of 18
T28D+A101C+D106N,59 nM,1 of 6,2 of 18
S31D+G33D+R56E+F59Q+G61I,not detected,0 of 6,0 of 18
F27A+T28Q+A101P,not detected,0 of 6,0 of 18
S53A+R100Q+D106I,not detected,0 of 6,0 of 18
G26M+T28D+R100Q,not detected,0 of 6,0 of 18
T28S+R100W,17 nM,6 of 6,0 of 18
K65E+S107T,2.4 nM,1 of 6,0 of 18
G26H+T28D+G61A+A101Q,4.3 nM,5 of 6,0 of 18
N30D+A101Q+S107V,11 nM,4 of 6,0 of 18
S31M+G61S+A101L+S107T,880 pM,2 of 6,0 of 18
S53A+S63R+R100E+S107M,1.6 nM,6 of 6,0 of 18
S31E+R56K+G61S+R100K,2.6 nM,6 of 6,0 of 18
D106L+S107W,not detected,0 of 6,0 of 18
T28Q+S31T+G61A+S63Q+R100Q,37 nM,5 of 6,0 of 18
T28S+S31T+G61A+R100Q,600 pM,6 of 6,0 of 18
S53G+Y60D+S63A+F105N+D106K,not detected,0 of 6,0 of 18
I51S+G55K+T58S+G61S+A102G,not detected,0 of 6,0 of 18
T28L+N30D+D62A+A101Q+F105A+D106L,not detected,0 of 6,0 of 18
G26E+A101V,9.3 nM,5 of 6,0 of 18
T28E+S31E+R56Y+F105Y+D106P,not detected,0 of 6,0 of 18
N30T,not detected,0 of 6,0 of 18
T28S+G61S+A101T+S107T,1.2 nM,6 of 6,0 of 18
G26S+S53A+A101T+D106K,not detected,0 of 6,0 of 18
T28S+S31M+R100K,19 nM,6 of 6,0 of 18
F27T+N30K,not detected,0 of 6,0 of 18
L29I+G61Q,not detected,0 of 6,0 of 18
G61S+S63Q+R100K,18 nM,6 of 6,0 of 18
T28E+S31E+G61S+R100E,not detected,0 of 6,0 of 18
N30Q+G61H+S107Q,4.8 nM,2 of 6,1 of 18
R56L+R100H+A101E+S107L,3.5 nM,6 of 6,0 of 18
R56Q+G61S+R100K+A101T,1.9 nM,6 of 6,1 of 18
T28D+N30D+S31E,2.3 nM,2 of 6,0 of 18
T28E+R100M+A101E,1.9 nM,6 of 6,0 of 18
S53A+F105A+D106K,1.3 nM,6 of 6,0 of 18
T28E+S53A,780 pM,12 of 12,0 of 36
T28Y+G61D+R100Q,64 nM,1 of 6,0 of 18
T28S+G61K+A101E,1.5 nM,6 of 6,0 of 18
T28S+S31D+S63A+R100K+A101T,1.7 nM,6 of 6,0 of 18
S31D+S35R+F59Q+G61I,25 nM,3 of 6,0 of 18
T28D+S63Q+R100Q+A101T+S107A,1.1 nM,6 of 6,0 of 18
S63Q+R100K+A101I+G103L,not detected,0 of 6,0 of 18
T28D+Y52F+T104V+D106N,160 nM,1 of 6,1 of 18
T28E+S31Q+G61S,1.0 nM,6 of 6,0 of 18
K65R+R100K,130 nM,5 of 6,0 of 18
S31E+G103V+S107C,not detected,0 of 6,0 of 18
G26K+T28S+N30E+R100W+A101T,25 nM,2 of 6,0 of 18
T28S+S31E+G61S+A101E,460 pM,6 of 6,0 of 18
T28H+G61A+R100A,not detected,0 of 6,0 of 18
T28Q+R100K+A101T,9.7 nM,5 of 6,0 of 18

The last 9 entries again:

changes	Kd (apparent)	replicates with signal	signal with controls
S63Q+R100K+A101I+G103L	not detected	0 of 6	0 of 18
T28D+Y52F+T104V+D106N	160 nM	1 of 6	1 of 18
T28E+S31Q+G61S	1.0 nM	6 of 6	0 of 18
K65R+R100K	130 nM	5 of 6	0 of 18
S31E+G103V+S107C	not detected	0 of 6	0 of 18
G26K+T28S+N30E+R100W+A101T	25 nM	2 of 6	0 of 18
T28S+S31E+G61S+A101E	460 pM	6 of 6	0 of 18
T28H+G61A+R100A	not detected	0 of 6	0 of 18
T28Q+R100K+A101T	9.7 nM	5 of 6	0 of 18

The range of this assay differs from that of the first round, and the authors advise against merging the two. Some sequences occur more than once in the pool; their replicates are pooled. In the paper, a design with two or fewer of six values counts as a poor binder.

Source: Li et al. 2023 (doi:10.1038/s41467-023-39022-2), MIT Lincoln Laboratory and A-Alpha Bio; data file from the FLAb repository.